Results taken from PubChem BioAssay (NCI).
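Results reflect a 48-hour exposure of cells in 96-well plates to compound at five concentrations. GI50 marks 50% less growth. At the TGI there is no net growth.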

Legend:
Assay in all cases: inhibition of tumour cell growth, NCI panel, 48 h
NCI-H226 lung = tested on: NCI-H226 lung
U251 CNS = tested on: U251 CNS
MDA-N = tested on: MDA-N
NCI-H322M lung = tested on: NCI-H322M lung
NCI-H23 lung = tested on: NCI-H23 lung
IGROV1 ovarian = tested on: IGROV1 ovarian
ACHN renal = tested on: ACHN renal
SK-MEL-5 melanoma = tested on: SK-MEL-5 melanoma
SK-MEL-2 melanoma = tested on: SK-MEL-2 melanoma
KM12 colon = tested on: KM12 colon
HS 578T breast = tested on: HS 578T breast
K-562 leukemia = tested on: K-562 leukemia
BT-549 breast = tested on: BT-549 breast
A498 renal = tested on: A498 renal
PC-3 prostate = tested on: PC-3 prostate
NCI-H522 lung = tested on: NCI-H522 lung
CAKI-1 renal = tested on: CAKI-1 renal
OVCAR-4 ovarian = tested on: OVCAR-4 ovarian
TK-10 renal = tested on: TK-10 renal
OVCAR-3 ovarian = tested on: OVCAR-3 ovarian
SK-MEL-28 melanoma = tested on: SK-MEL-28 melanoma
OVCAR-5 ovarian = tested on: OVCAR-5 ovarian
NCI/ADR-RES ovarian = tested on: NCI/ADR-RES ovarian
MDA-MB-231 breast = tested on: MDA-MB-231 breast
MOLT-4 leukemia = tested on: MOLT-4 leukemia
DU-145 prostate = tested on: DU-145 prostate
LOX IMVI melanoma = tested on: LOX IMVI melanoma
MALME-3M melanoma = tested on: MALME-3M melanoma
SW-620 colon = tested on: SW-620 colon

`COc1ccc2c(c1)C1(C)CCC(O2)C12CO2` (configuration not stated) was tested. Which GI50 (NCI-H226 lung) did it give?
Its GI50 is over 100 µM.

What about the TGI (NCI-H226 lung) of the same compound?
Its TGI is over 100 µM.

And the GI50 (U251 CNS)?
Its GI50 is over 100 µM.

What about the TGI (U251 CNS) of the same compound?
Its TGI is over 100 µM.

And the GI50 (MDA-N)?
The GI50 was 40.9 µM.

What about the TGI (MDA-N) of the same compound?
The TGI was over 100 µM.

What about the GI50 (NCI-H322M lung) of the same compound?
The GI50 was over 100 µM.

What about the TGI (NCI-H322M lung) of the same compound?
The TGI was over 100 µM.

What about the GI50 (NCI-H23 lung) of the same compound?
The GI50 was over 100 µM.

And the TGI (NCI-H23 lung)?
Its TGI is over 100 µM.

And the GI50 (IGROV1 ovarian)?
The GI50 was over 100 µM.

And the TGI (IGROV1 ovarian)?
Its TGI is over 100 µM.

What about the GI50 (ACHN renal) of the same compound?
The GI50 was 60 µM.

What about the TGI (ACHN renal) of the same compound?
Its TGI is over 100 µM.

And the GI50 (SK-MEL-5 melanoma)?
Its GI50 is over 100 µM.

And the TGI (SK-MEL-5 melanoma)?
The TGI was over 100 µM.

And the GI50 (SK-MEL-2 melanoma)?
Its GI50 is 66.8 µM.

What about the TGI (SK-MEL-2 melanoma) of the same compound?
Its TGI is over 100 µM.

And the GI50 (KM12 colon)?
Its GI50 is 61.7 µM.

What about the TGI (KM12 colon) of the same compound?
The TGI was over 100 µM.

What about the GI50 (HS 578T breast) of the same compound?
Its GI50 is 13.2 µM.

What about the TGI (HS 578T breast) of the same compound?
The TGI was over 100 µM.

And the GI50 (K-562 leukemia)?
Its GI50 is 58.4 µM.

What about the TGI (K-562 leukemia) of the same compound?
Its TGI is over 100 µM.

What about the GI50 (BT-549 breast) of the same compound?
Its GI50 is 56.9 µM.

What about the TGI (BT-549 breast) of the same compound?
The TGI was over 100 µM.

What about the GI50 (A498 renal) of the same compound?
Its GI50 is over 100 µM.

And the TGI (A498 renal)?
Its TGI is over 100 µM.

What about the GI50 (PC-3 prostate) of the same compound?
The GI50 was over 100 µM.

What about the TGI (PC-3 prostate) of the same compound?
Its TGI is over 100 µM.

And the GI50 (NCI-H522 lung)?
Its GI50 is 63.1 µM.

What about the TGI (NCI-H522 lung) of the same compound?
The TGI was over 100 µM.

And the GI50 (CAKI-1 renal)?
The GI50 was over 100 µM.

And the TGI (CAKI-1 renal)?
The TGI was over 100 µM.

What about the GI50 (OVCAR-4 ovarian) of the same compound?
Its GI50 is over 100 µM.

What about the TGI (OVCAR-4 ovarian) of the same compound?
Its TGI is over 100 µM.

And the GI50 (TK-10 renal)?
The GI50 was 96.5 µM.

What about the TGI (TK-10 renal) of the same compound?
The TGI was over 100 µM.

And the GI50 (OVCAR-3 ovarian)?
Its GI50 is over 100 µM.

And the TGI (OVCAR-3 ovarian)?
Its TGI is over 100 µM.

What about the GI50 (SK-MEL-28 melanoma) of the same compound?
The GI50 was 42.9 µM.

And the TGI (SK-MEL-28 melanoma)?
Its TGI is over 100 µM.

And the GI50 (OVCAR-5 ovarian)?
Its GI50 is over 100 µM.

And the TGI (OVCAR-5 ovarian)?
Its TGI is over 100 µM.

And the GI50 (NCI/ADR-RES ovarian)?
The GI50 was 30.9 µM.

And the TGI (NCI/ADR-RES ovarian)?
Its TGI is over 100 µM.

And the GI50 (MDA-MB-231 breast)?
The GI50 was over 100 µM.

What about the TGI (MDA-MB-231 breast) of the same compound?
Its TGI is over 100 µM.

And the GI50 (MOLT-4 leukemia)?
The GI50 was 25.5 µM.

And the TGI (MOLT-4 leukemia)?
The TGI was over 100 µM.

And the GI50 (DU-145 prostate)?
The GI50 was over 100 µM.

What about the TGI (DU-145 prostate) of the same compound?
The TGI was over 100 µM.

And the GI50 (LOX IMVI melanoma)?
Its GI50 is 26.7 µM.

And the TGI (LOX IMVI melanoma)?
Its TGI is over 100 µM.

What about the GI50 (MALME-3M melanoma) of the same compound?
Its GI50 is over 100 µM.

And the TGI (MALME-3M melanoma)?
Its TGI is over 100 µM.

And the GI50 (SW-620 colon)?
The GI50 was 32.8 µM.
